Apparent affinities of Ab-14 variants for a coronavirus HR2 peptide

Target: peptide PDVDLGDISGINAS, taken from heptad repeat 2 (HR2) of SARS-CoV-2 spike.

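Phage display of a naive human antibody library on the peptide gave the parent. This is the validation round: designs drawn from the data on random variants, tested in the same kind of assay. Group labels follow the data file (Rand: our label for a block that the file lists under HC and that is probably the random mutants of the ten best first-round binders; En: ensemble of fine-tuned language models; HC: hill climbing; Gen: genetic algorithm; Gibbs: Gibbs sampling; a sequence that several methods proposed may carry one label only). In AlphaSeq, yeast of one mating type display the scFv and yeast of the other type display the target. The frequency of each diploid, read from paired DNA barcodes, reflects how well the two displayed proteins bind. A regression on co-assayed BCL2-family reference pairs converts the normalised counts of each replicate to an apparent Kd. The assay was run in six technical replicates.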

The variants keep the light chain, the linker and the frameworks of Ab-14 (scFv order VH, a 15-residue (Gly4Ser)3 linker, VL).
VH: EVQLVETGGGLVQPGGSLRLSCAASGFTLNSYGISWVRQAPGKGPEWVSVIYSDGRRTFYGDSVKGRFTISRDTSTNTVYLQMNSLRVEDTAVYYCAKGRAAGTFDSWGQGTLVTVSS
VL: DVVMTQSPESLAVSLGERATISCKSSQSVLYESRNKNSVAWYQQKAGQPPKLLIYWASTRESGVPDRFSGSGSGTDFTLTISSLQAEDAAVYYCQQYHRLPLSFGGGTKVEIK

Each variant is given by its three heavy chain CDRs, as the data file delimits them; those of the parent are GFTLNSYGIS, VIYSDGRRTFYGDSVK, GRAAGTFDS. Variants here have more than six changes. The Kd shown is the geometric mean over detected replicates; a lower Kd is a better binder. A pair that was not seen in any replicate is written "not detected"; this usually means weak binding, but a binder can also be missed. Nonspecific signal, from three strains lacking the peptide, appeared in 1% of pairings of all heavy chain designs, centred on 120 nM (5% of these signals below 7.0 nM); values are not corrected for it. The authors' rule: three or more of the six replicates give a measured affinity, fewer mean a poor binder. Of ten entries with the parent sequence, four were seen in most replicates (averages 2.2 nM to 240 nM), three in one and three in none, so single entries are noisy. A sequence measured in both rounds can read differently, since the two assays cover different ranges.

CDR-H1	CDR-H2	CDR-H3	group	Kd (apparent)	seen in
GFDVDEQGIS	VIYADGKRSMYANSVK	GTIGGMFFQ	En_Gibbs	350 nM	1 of 6
GFDLNEYGIS	VIYADGRRTFYVDSVK	GVNAGTFDV	En_HC	160 pM	6 of 6
GFDLNEYGIS	VIYADGIRTAYADSVK	GENAGTFDM	En_Gen	570 pM	6 of 6
GFDLDEYGIS	VIYADGKRTAYVDSVK	GNVAGTFDL	En_Gen	1.7 nM	5 of 6
GFDIEEYGIS	VIYADGIRQAYKDKVK	GWNDGTFSV	En_Gibbs	not detected	0 of 6
GFDLNEYGIS	VIYADGVRTAYADDVK	GGNAGTFDL	En_Gen	not detected	0 of 6
GFDLNEYGIS	VIYADGMRKAYADDVK	GNVAGTFDM	En_Gen	2.1 nM	6 of 6
GFDLNEYGIS	VIYADGMRTFYADDVK	GNQAGTFDV	En_Gen	310 pM	6 of 6
GFDLNEYGIS	VIYADGRRTFYSDSVK	GQLAGTFDM	En_HC	370 pM	6 of 6
GFDLNEYGIS	VIYADGRRTAYKDSVK	GTNGGTFDV	En_HC	310 pM	6 of 6
GFNLNEYGIS	VIYADGNRNAYADSVK	GLHANFFDI	En_Gibbs	190 nM	2 of 6
GFDLDEYGIS	VIYADGKRTAYANSVK	GEVAGTFDL	En_Gen	310 pM	6 of 6
GFDLEEYGIS	VIYADGKRSFVSNSVK	GQLGNAFDM	En_Gibbs	not detected	0 of 6
GFDLNEYGIS	VIYADGMRTAYLDSVK	GEAAGTFDS	En_HC	not detected	0 of 6
GFDLDEYGIS	VIYADGRRTFYADSVK	GTNAGTFDI	En_HC	1.0 nM	6 of 6
GQSLDDYGIS	VIYADGMRKAYVDEVK	GYVAGTFDI	En_Gibbs	1.8 nM	6 of 6
GFDIDEYGIS	VIYADGRRTFYADSVK	GTNAGTFDI	En_HC	810 pM	6 of 6
GFDLNEYGIS	VIYADGMRTFYTDSVK	GEFAGTFDS	En_HC	1.6 nM	6 of 6
GFDLNEYGIS	VIYADGSRVAYAQNVK	GKNDAISSV	En_Gibbs	not detected	0 of 6
GFTLNEYGTS	VIYSDGRRTFETDNVK	ERFAGTFDS	Rand	not detected	0 of 6
GNNLDEYGIS	VIYADGQRSAYAQDVK	GKTGDNAFV	En_Gibbs	not detected	0 of 6
GFNLDEYGIS	VIYADGKRTAYADSVK	NSVMSGRVT	En_Gibbs	not detected	0 of 6
GFDLDEYGIS	VIYADGRRTAYKDSVK	GSNAGTFDM	En_HC	1.3 nM	6 of 6
GFSLEEYGIS	VIYADGMRTNYAESVK	GNFDLQEGY	En_Gibbs	not detected	0 of 6
GFDLDEYGIS	VIYADGMRTAYVDSVK	GNQAGTFDV	En_Gen	480 pM	6 of 6
GFDLNEYGIS	VIYADGKRTAYSDDVK	GNVAGTFDQ	En_Gen	340 pM	6 of 6
GFDLDEYGIS	VIYADGRRTFYSDSVK	GNTAGTFDV	En_HC	290 pM	6 of 6
GFNLDEYGIS	VIYADGVREAYANKVK	GEQGSFFIT	En_Gibbs	1.1 µM	1 of 6
GYDLVEYGIS	VIYADGQRTAYADTVK	GNHGGIIDV	En_Gibbs	340 nM	1 of 6
GFDLNEYGIS	VIYADGQRTFYADSVK	GNVAGTFDQ	En_Gen	720 pM	6 of 6
GFDLNEYGIS	VIYADGMRTAYQDSVK	GNVAGTFDV	En_Gen	3.4 nM	6 of 6
GFDLNEFGIS	VIYADGRQTFYTDNVK	GGNQGTFVN	En_Gibbs	1.2 µM	2 of 6
GFDLNEYGIS	VIYADGRRTFYADSVK	GGNAGTFLV	En_HC	8.4 nM	4 of 6
GFDLNEYGIS	VIYADGVRTAYSDSVK	GGNAGTFDV	En_Gen	240 pM	6 of 6
GFKLDEYGIS	VIYADGCRKMYADSVK	GKDTVVKLV	En_Gibbs	not detected	0 of 6
GMDLDEYGIS	VIYADGHRRQYAANVK	GVNIDGFDL	En_Gibbs	not detected	0 of 6
GFDLNEYGIS	VIYADGVRTFYADSVK	GEVAGTFVS	En_HC	110 pM	6 of 6
GFGLMDYGIS	VIYADGKRRSYANSFK	GAHAGTFDF	En_Gibbs	11 nM	3 of 6
GFDLDEYGIS	VIYADGMRTAYIDSVK	GEVAGTFDL	En_Gen	620 pM	6 of 6
GFDLNEYGIS	VIYADGKRTFYTDSVK	GTNAGTFDV	En_HC	1.1 nM	6 of 6
GFDLNEYGIS	VIYADGRRSFYADSVK	GQVAGTFDS	En_HC	310 pM	6 of 6
GFDLNEYGIS	VIYADGRRTGYADSVK	GNEAGTFDS	En_HC	460 pM	6 of 6
GFSLDEFGIS	VIYADGMRSFYTDNVK	GINGNVLWI	En_Gibbs	not detected	0 of 6
GFDLNEYGIS	VIYADGVRTSYADSVK	GNNAGTFDV	En_Gen	not detected	0 of 6
GFDLDEYGIS	VIYADGMRKAYADSVK	GNVAGTFDQ	En_Gen	280 pM	6 of 6
GFNLNEYGIS	VIYADGKRYEYIDSVK	GIVVGKVLY	En_Gibbs	850 nM	1 of 6
GFDLNEYGIS	VIYADGMRTAYADKVK	GQNAGTFDV	En_Gen	580 pM	6 of 6
GADLNEYGIS	VIYADGRRVEYENSFK	GWVAGTFDS	En_Gibbs	17 nM	1 of 6
GFDLNEYGIS	VIYADGKRTAYADNVK	GEVAGTFDV	En_Gen	250 pM	6 of 6
GFDLDEYGIS	VIYADGRRTFYQDSVK	GQTAGTFDQ	En_HC	300 pM	6 of 6
GFDLDEYGIS	VIYADGVRTFYADSVK	GNQAGTFDV	En_Gen	580 pM	6 of 6
GFDLNEYGIS	VIYADGMRTSYADSVK	GENAGTFDM	En_Gen	1.4 nM	6 of 6
EFDLNEYGVS	VIYADGHRSFYADHVK	GQVAGIFFM	En_Gibbs	not detected	0 of 6
GFDLNEYGVS	VIYADGHRAQYTEDVK	GGNSGAVDM	En_Gibbs	24 nM	6 of 6
GFDLGEYGIS	VIYADGRRKGYSDAVK	GINSINVTV	En_Gibbs	not detected	0 of 6
GFNLDEYGIS	VIYADGMRTAYDSKVK	GQVWWNLLM	En_Gibbs	not detected	0 of 6
GFSLNEYGIS	VIYADGRRTFYADNVK	GNVAGTFDQ	En_HC	230 pM	6 of 6
GFDLDEYGIS	VIYADGVRTAYADSVK	GETAGTFDI	En_Gen	610 pM	6 of 6
AFNLEDYGIS	VIYADGHRASYVESVK	GGLAGTFVL	En_Gibbs	not detected	0 of 6
GFDLDEYGIS	VIYADGVRTAYSDSVK	GNNAGTFDV	En_Gen	62 pM	6 of 6
GFDLNEYGIS	VIYADGKRTAYSDSVK	GETAGTFDI	En_Gen	15 nM	2 of 6
GFDLNEYGIS	VIYADGRRTFYQDSVK	GEIAGTFDQ	En_HC	1.9 nM	5 of 6
GKGLDEYGIS	VIYADGVRKAYAQSVK	GQVGFFVRV	En_Gibbs	not detected	0 of 6
GFQLEEYGIS	VIYADGRRAAYADDVK	GQGNVIAGG	En_Gibbs	1.9 nM	6 of 6
GFDLDEYGIS	VIYADGMRTAYIDSVK	GENAGTFDT	En_Gen	640 pM	6 of 6
GFSIDEYGIS	VIYADGMRARYSDAVK	GVKVGNVVM	En_Gibbs	not detected	0 of 6
GFNLDEYGIS	VIYADGIRTAYANKVK	GTNWWISVN	En_Gibbs	9.8 µM	1 of 6
GFDLNEYGIS	VIYADGVRTFYADSVK	GNNAGTFDM	En_Gen	190 pM	6 of 6
GFDLNEYGIS	VIYADGKRTFYADSVK	GNQAGTFIS	En_HC	2.2 nM	6 of 6
GFDLNEYGIS	VIYADGKRTAYSDSVK	GEVAGTFDL	En_Gen	1.3 nM	6 of 6
GFDLEKYGIH	VIYADGIRKSYSDSVK	GDYSGTFYV	En_Gibbs	not detected	0 of 6

From the list, the first 11 with no signal in any replicate:

CDR-H1,CDR-H2,CDR-H3,group,Kd (apparent),seen in
GFDIEEYGIS,VIYADGIRQAYKDKVK,GWNDGTFSV,En_Gibbs,not detected,0 of 6
GFDLNEYGIS,VIYADGVRTAYADDVK,GGNAGTFDL,En_Gen,not detected,0 of 6
GFDLEEYGIS,VIYADGKRSFVSNSVK,GQLGNAFDM,En_Gibbs,not detected,0 of 6
GFDLNEYGIS,VIYADGMRTAYLDSVK,GEAAGTFDS,En_HC,not detected,0 of 6
GFDLNEYGIS,VIYADGSRVAYAQNVK,GKNDAISSV,En_Gibbs,not detected,0 of 6
GFTLNEYGTS,VIYSDGRRTFETDNVK,ERFAGTFDS,Rand,not detected,0 of 6
GNNLDEYGIS,VIYADGQRSAYAQDVK,GKTGDNAFV,En_Gibbs,not detected,0 of 6
GFNLDEYGIS,VIYADGKRTAYADSVK,NSVMSGRVT,En_Gibbs,not detected,0 of 6
GFSLEEYGIS,VIYADGMRTNYAESVK,GNFDLQEGY,En_Gibbs,not detected,0 of 6
GFKLDEYGIS,VIYADGCRKMYADSVK,GKDTVVKLV,En_Gibbs,not detected,0 of 6
GMDLDEYGIS,VIYADGHRRQYAANVK,GVNIDGFDL,En_Gibbs,not detected,0 of 6

Source: Li et al. 2023 (doi:10.1038/s41467-023-39022-2), MIT Lincoln Laboratory and A-Alpha Bio; data file from the FLAb repository.